A selection: hits, their analogues and other compounds. The true share with any hit is near 13%.
ALDH1A1 inh: inhibitors of human aldehyde dehydrogenase 1A1 | P00352 | Purified ALDH1A1, NADH fluorescence, propionaldehyde substrate | Potency, µM (highest dose often 75.3 µM), for inactives: top-dose activity, negative = inhibition, actives largely listed as inhibitors | 220,000 compounds, 7.3% hits | AID 1030; active = well fitted inhibition curve with a large enough effect, not every such curve was filed as active; inconclusive = small, poorly fitted or top-dose-only effect, or another doubt; inactive = no such curve, though single readings can be large or run the other way;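 note: potency is the fitted concentration of half-maximal effect; plate controls were no enzyme wells and a reference inhibitor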
JMJD2E inh: blocks human JMJD2E demethylase activity; B2RXH2; JMJD2E catalytic domain, FDH-coupled NADH fluorescence (FDH is formaldehyde dehydrogenase); Potency, µM (titrated, usually from 57.1 µM), for inactives: at the top dose activity change, negative = inhibition, hits mostly inhibitors; 230,000 compounds, 1.6% hits; active = well fitted inhibition curve with a large enough effect, not every such curve was filed as active; inconclusive = small, poorly fitted or top-dose-only effect, or another doubt; inactive = no such curve, though single readings can be large or run the other way;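 note: potency is the fitted concentration of half-maximal effect; 0% = wells with enzyme and -100% = buffer wells without enzyme; nearly all actives have a fitted effect of over 50% in size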
miR-21 FLuc: raises the signal of a miR-21 reporter | HeLa miR-21 FLuc reporter, luciferase, 48 h | Potency, µM (doses to about 38.3 µM), without a hit: at the top dose reporter change, positive = more light | 340,000 tested, under 10 active | AID 2288; active = well fitted rising curve with a large enough effect; inconclusive = small, poorly fitted or top-dose-only effect; inactive = no such curve, though single readings can be large or run the other way;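 note: % of control where 0% means no effect; miR-21 action dims this reporter so a rising signal means less miR-21 action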
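Using DMEM plus 10% FBS, HeLa miR-21-FLuc cells are incubated with test compounds (final up to about 40uM) for 48 hours; firefly luciferase signal is then imaged following reagent-mediated lysis.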
LMNA splice mod: modulators of lamin A splicing. Potency, µM (titrated, usually from 46.1 µM), inactives show at the top dose ratio change, negative = inhibition, actives largely listed as inhibitors. 200,000 compounds, 0.01% hits. HeLa LMNA splicing GFP/RFP minigene ratio, 48 h; active = well fitted inhibition curve with a large enough effect in the signal ratio, with a control signal flat, not every such curve was filed as active; inconclusive = small, poorly fitted or top-dose-only effect, or effect the other way, or a change in a side signal; the % refers to the signal ratio; note: potency is the fitted concentration of half-maximal effect; % is set by controls: 0 for no effect and ±100 for the full control effect
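S3 HeLa cells stably expressing lamin A-EGFP splicing minigene plus DsRed2, 600 cells/well, 48 h compound exposure at 37C. Laser-scanning cytometry; analysed as GFP (500-530 nm)/RFP (575-640 nm) total intensity ratio; 0.5% DMSO vehicle.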
Sfp inh: blocks B. subtilis Sfp PPTase activity; Q9F4F7; Biochemical Sfp PPTase activity, qHTS; Potency, µM, for the others: max response, negative = inhibition, most hits filed as inhibitors; actives 3.5% (n = 310,000); AID 1490; active = well fitted inhibition curve with a large enough effect; inconclusive = small, poorly fitted or top-dose-only effect, or another doubt; inactive = no such curve, though single readings can be large or run the other way;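 also: the enzyme is Sfp with the accession as filed and its product quenches rhodamine fluorescence; potency is read from the fitted curve at half-maximal effect; 0% = enzyme reaction without inhibitor and -100% = no enzyme wells; top concentration of the series not given in the record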
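Reaction rates are the 30-min fluorescence difference (ex 525, em 598 nm) in wells containing 15 nM Sfp, 5 uM rhodamine-CoA and 12.5 uM BHQ-2-YbbR at pH 7.6 with 10 mM MgCl2.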
G9a block: G9a (human) methyltransferase inhibition; G9a H3K9 monomethylation, AlphaScreen, 2 h; Potency, µM (top dose mostly 102 µM), inactives show top-dose activity, negative = inhibition, hits mostly inhibitors; 350,000 compounds, 8.8% hits; AID 504332; note: potency is the fitted concentration of half-maximal effect; % is set by controls: 0 for no effect and ±100 for the full control effect; nearly all actives have a fitted effect of over 75% in size
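Signal arises when biotinylated H3K9 peptide, once monomethylated, bridges streptavidin donor and antibody-captured acceptor beads. Enzyme at 20 nM was preincubated 15 min with test compounds; peptide 500 nM and SAM 20 uM then reacted for 2 h.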
The depositor's hits bear a star; ? = inconclusive; nt = no result; [ ] = dose if it differs, or a comment. Unless noted, calls come from the whole dose curve; as a rule, active = well fitted curve in the direction sought with a large enough effect; inconclusive = small, poorly fitted or top-dose-only effect, or another doubt; inactive = no such curve, though single readings can be large; an effect the other way counts as inactive or inconclusive.

1: Cc1ccccc1CNC(=O)C(=O)NCC1OCCCN1S(=O)(=O)c1cccs1 (stereo unspecified)
2: COc1ccc(OC)c2c1C(=O)c1ccccc1C2=O
3: COc1cccc(Nc2nnc(SCc3cc([N+](=O)[O-])cc4c3OCOC4)s2)c1
4: Nc1cc(N)nc(SCc2cc([N+](=O)[O-])cc3c2OCOC3)n1
5: Cc1cccc(C)c1Nc1nnc(SCc2cc([N+](=O)[O-])cc3c2OCOC3)s1
6: COCC(=O)N1CCC[C@@]2(CCN(C(=O)Nc3cccc(F)c3)C2)C1
7: Cc1ccc(NC(=O)C(c2ccccc2)N(C)C)cc1Cl (stereo unspecified)
8: Cc1ccc(NC(=O)C(OC(=O)c2ccc(F)cc2)c2ccccc2)cc1Cl (stereo unspecified)

Assay by compound | 1 | 2 | 3 | 4 | 5 | 6 | 7 | 8
ALDH1A1 inh | nt | 7.9µM* | -2% | ? | 22µM* | 0% | 1.4µM* | -10%
JMJD2E inh | nt | ? | 0% | ? | -8% | nt | -6% | 11%
miR-21 FLuc | -2% | -17% | -1% | -19% | 0% | nt | -7% | -26%
LMNA splice mod | nt | ? | ? | nt | 3% | nt | -26%[46 µM] | 5%
Sfp inh | -2% | 40µM* | 16% | 11% | 2% | 11% | -20% | 30%
G9a block | nt | -3%[59 µM] | ? | 71µM* | 50µM* | 14%[12.7 µM] | -31% | 21%[59 µM]

2 entries from above, with each value named:
4	Nc1cc(N)nc(SCc2cc([N+](=O)[O-])cc3c2OCOC3)n1
  ALDH1A1 inh: ?
  JMJD2E inh: ?
  miR-21 FLuc: -19%
  LMNA splice mod: nt
  Sfp inh: 11%
  G9a block: 71µM*

5	Cc1cccc(C)c1Nc1nnc(SCc2cc([N+](=O)[O-])cc3c2OCOC3)s1
  ALDH1A1 inh: 22µM*
  JMJD2E inh: -8%
  miR-21 FLuc: 0%
  LMNA splice mod: 3%
  Sfp inh: 2%
  G9a block: 50µM*

The results go on.
9: Cc1ccc(NC(=O)C(C)N2CCCC2)cc1Cl (stereo unspecified)
10: Cc1ccc(NC(=O)C(OC(=O)c2ccc(O)cc2)c2ccccc2)cc1Cl (stereo unspecified)
11: Cc1ccccc1C(=O)N1CCN(S(=O)(=O)c2ccccc2)CC1
12: Cc1ccnc(NC(=O)C2CC(=O)N(c3ccc4c(c3)OCCO4)C2)c1 (stereo unspecified)
13: O=C(CCCc1ccccc1)N1CCN(C2CCCCC2)CC1
14: c1ccc(CCN(Cc2ccccc2)C2CCN(C3CCCC3)CC2)cc1
15: COc1ccccc1C(=O)C1CCCN(C(=O)CCn2cnnn2)C1 (stereo unspecified)
16: O=C1C(Cl)=C(Nc2cccc(O)c2)C(=O)N1Cc1ccccc1

Assay by compound | 9 | 10 | 11 | 12 | 13 | 14 | 15 | 16
ALDH1A1 inh | 5% | ? | nt | nt | nt | 40µM* | nt | ?
JMJD2E inh | 14% | 10% | nt | nt | nt | 4% | -9% | -25%
miR-21 FLuc | -2% | -1% | 0% | 1% | -58% | -2% | -11% | 23%
LMNA splice mod | -3%[46 µM] | ? | nt | nt | nt | nt | nt | ?
Sfp inh | -7% | 27% | 20% | 7% | 8% | 50µM* | 22% | -3%
G9a block | -37% | 71µM* | -11% | 19% | -5% | 50µM* | 1% | 35µM*

17: O=c1c(N2CCN(c3cccc(C(F)(F)F)c3)CC2)csc2ccccc12
18: CCOC(=O)C1CCN(C(=O)c2oc3ccc(S(=O)(=O)N4CC(C)CC(C)C4)cc3c2C)CC1 (stereo unspecified)
19: CCOC(=O)C1CCN(C(=O)COc2ccc(S(=O)(=O)N3CCCC3)cc2C)CC1
20: CCOC(=O)N1CCN(C(=O)COC(=O)C2CCN(S(=O)(=O)c3ccc(C)c(C)c3)CC2)CC1
21: CCOC(=O)N1CCN(C(=O)c2oc3ccc(S(=O)(=O)N4CC(C)CC(C)C4)cc3c2C)CC1 (stereo unspecified)
22: CCOC(=O)N1CCN(C(=O)COC(=O)C2CCN(S(=O)(=O)c3c(Cl)cccc3Cl)CC2)CC1
23: COc1ccc(NC(=O)CN(C)C(=O)Cc2c(C)nc3ccccc3c2C)cc1
24: O=P(O)(O)OC(CO)CO

Assay by compound | 17 | 18 | 19 | 20 | 21 | 22 | 23 | 24
ALDH1A1 inh | nt | 0% | 18µM* | nt | -7% | nt | nt | nt
JMJD2E inh | nt | -2% | -3% | nt | 1% | nt | nt | nt
miR-21 FLuc | -15% | 10% | -5% | nt | -26% | nt | nt | nt
LMNA splice mod | 22%[46 µM] | ? | nt | nt | 6%[0.0737 µM] | nt | nt | nt
Sfp inh | nt | -11% | -2% | nt | -13% | nt | nt | -6%
G9a block | ? | 14µM* | nt | -19% | 26%[0.501 µM] | 50µM* | -2% | nt

25: Oc1ccc(-c2nc3ccc4ccccc4c3c3c2CCC3)cc1O
26: CCCn1c2ccccc2c2cnn(CC(=O)N3CCC(C)CC3)c(=O)c21
27: CCn1c(SCC(=O)OC)nnc1-c1ccccc1
28: CCn1c(SCCC(=O)O)nnc1-c1cccnc1
29: CCn1c(SCC(=O)c2ccccc2)nnc1-c1cccnc1
30: CCn1c(SCC(=O)O)nnc1-c1ccc2[nH]c(C)c(C)c2c1
31: CCn1c(SCC(N)=O)nnc1-c1ccc2[nH]c(C)c(C)c2c1
32: CCn1c(SCC(=O)OC)nnc1-c1ccc(C)cc1

Assay by compound | 25 | 26 | 27 | 28 | 29 | 30 | 31 | 32
ALDH1A1 inh | 0% | nt | 8% | 7% | ? | ? | 2% | nt
JMJD2E inh | 25µM* | nt | 4% | 4% | -4% | -23% | 5% | -2%
miR-21 FLuc | -49% | -3% | -1% | -3% | -22% | -17% | -12% | 0%
LMNA splice mod | ? | ? | -5%[46 µM] | -1% | ? | 4% | 29% | nt
Sfp inh | -9% | nt | 18% | 15% | 7% | 2% | 17% | 3%
G9a block | ? | -22%[59 µM] | 14µM* | 45µM* | -8% | 14µM* | -6%[59 µM] | nt

33: c1ccc(Cn2c(SCCN3CCOCC3)nnc2-c2cccnc2)cc1
34: COc1ccccc1N1CCN(S(=O)(=O)c2ccc(-c3ccno3)cc2OC)CC1
35: COc1ccc(-c2cc(C(F)(F)F)nc(SCC(=O)NCC(C)C)n2)cc1OC
36: C=CCN(C(C(=O)OC)C(C)C)S(=O)(=O)C=C (stereo unspecified)
37: Cc1cc(C)c(C)c(C(=O)CSc2nnc(-c3ccc4[nH]c(C)c(C)c4c3)o2)c1C
38: CCn1c(SCC(=O)O)nnc1-c1ccccc1
39: CCn1c(SCC(N)=O)nnc1-c1cc2c(C)nn(-c3ccccc3)c2s1
40: CCn1c(SCC(=O)Nc2cc(C(C)(C)C)nn2-c2ccccc2)nnc1-c1cccs1

Assay by compound | 33 | 34 | 35 | 36 | 37 | 38 | 39 | 40
ALDH1A1 inh | ? | nt | nt | nt | -15% | -1% | ? | -2%
JMJD2E inh | ? | nt | nt | nt | ? | 2% | -14% | 4%
miR-21 FLuc | -14% | 10% | -5% | nt | -1% | -2% | -11% | 2%
LMNA splice mod | 5% | -6%[46 µM] | nt | nt | ? | -3% | ? | ?
Sfp inh | -28% | nt | nt | 23% | 0% | 0% | 15% | 16%
G9a block | 10µM* | -18%[59 µM] | 15%[59 µM] | nt | 25µM* | 11%[59 µM] | 45µM* | 9%[59 µM]

Values in list order from the entries so far.
LMNA splice mod, nos. 33–40: 5%, -6%[46 µM], nt, nt, ?, -3%, ?, ?
G9a block, nos. 33–40: 10µM*, -18%[59 µM], 15%[59 µM], nt, 25µM*, 11%[59 µM], 45µM*, 9%[59 µM]

(continued)
41: CCn1c(SCc2cccc(C(=O)O)c2)nnc1-c1ccccc1
42: Cc1[nH]c2ccc(-c3nnc(SCC(=O)c4ccc(F)cc4)o3)cc2c1C
43: CC(C)CN(CCCNC(=O)c1cc(-c2ccc(Br)s2)nc2ccccc12)CC(C)C
44: COc1ccc(OC)c(CNC(=O)CCc2c(C)nc3c(c2C)c(=O)n(C)c(=O)n3C)c1

Assay by compound | 41 | 42 | 43 | 44
ALDH1A1 inh | 15% | -13% | nt | nt
JMJD2E inh | 15% | -9% | nt | nt
miR-21 FLuc | -17% | -18% | -4% | -3%
LMNA splice mod | 1% | 4% | nt | nt
Sfp inh | 21% | 3% | nt | nt
G9a block | 56µM* | ? | 10%[59 µM] | -1%[59 µM]

Assay outcomes: PubChem BioAssay, National Center for Advancing Translational Sciences (NCATS)
